This assay deals with S. cerevisiae M11205. Type of assay: cell-based, Saccharomyces cerevisiae.

Some results are limits rather than exact numbers.

In the case of `OCCCCO[C@H]1O[C@H](CO)[C@@H](O)[C@H](O)[C@H]1O` [FS-1, 4-hydrosbutyl glucopyranoside], the “Ethanol yield and lag phase compared with CE-1, CE-2 and control” value is “distinct enhancement for ethanol yield as well as the elimination of the lag phase”; the “Time to complete conversion of sugars to ethanol” value was at most 24 h.

The values above are taken from patent publication US20210222208A1, “SUGAR-DERIVED STIMULANT FOR ENHANCEMENT OF AEROBIC AND ANAEROBIC FERMENTATION PERFORMANCE” (priority 2018, published 2021).
